{"source": "patent US12171806B2", "about": "“Therapeutic regimens and methods for lowering blood glucose and/or body weight using GLP-1R and GCGR balanced agonists” (priority 2021, dated 2024)", "assay": "Phase 1 MAD study of ALT-801: adverse events (TEAEs), safety overview", "conditions": "M1 1.2 mg ALT-801 (N = 7)", "data": [{"smiles": "CC[C@H](C)[C@H](NC(=O)[C@H](Cc1ccccc1)NC(=O)[C@H](CCC(=O)O)NC(=O)[C@@H]1CCCCNC(=O)CC[C@H](NC(=O)[C@H](CC(=O)O)NC(=O)[C@H](CC(C)C)NC(=O)[C@H](Cc2ccc(O)cc2)NC(=O)[C@H](CCCCN)NC(=O)[C@H](CO)NC(=O)[C@H](Cc2ccc(O)cc2)NC(=O)[C@H](CC(=O)O)NC(=O)[C@H](CO)NC(=O)[C@@H](NC(=O)[C@H](Cc2ccccc2)NC(=O)[C@@H](NC(=O)CNC(=O)[C@H](CCC(N)=O)NC(=O)C(C)(C)NC(=O)[C@@H](N)Cc2c[nH]cn2)[C@@H](C)O)[C@@H](C)O)C(=O)N[C@@H](CCCCNC(=O)[C@H]2O[C@@H](OCCCCCCCCCCCCCCCCCC(=O)O)[C@H](O)[C@@H](O)[C@@H]2O)C(=O)N[C@@H](C)C(=O)N[C@@H](C)C(=O)N1)C(=O)N[C@@H](CCC(N)=O)C(=O)N[C@@H](Cc1c[nH]c2ccccc12)C(=O)N[C@@H](CC(C)C)C(=O)N[C@@H](CC(C)C)C(=O)N[C@@H](CCC(N)=O)C(=O)N[C@H](C(N)=O)[C@@H](C)O", "note": "[ALT-801, pemvidutide]", "values": [{"measurement": "TEAE Cough, maximum severity Mild, subjects n", "value": 0}, {"measurement": "TEAE Cough, maximum severity Moderate, subjects %", "value": "(0.0%)"}, {"measurement": "TEAE Cough, maximum severity Moderate, subjects n", "value": 0}, {"measurement": "TEAE Cough, maximum severity PLT, subjects %", "value": "(0.0%)"}, {"measurement": "TEAE Cough, maximum severity PLT, subjects n", "value": 0}, {"measurement": "TEAE Cough, maximum severity Severe, subjects %", "value": "(0.0%)"}, {"measurement": "TEAE Cough, maximum severity Severe, subjects n", "value": 0}, {"measurement": "TEAE Dermatitis contact, maximum severity Mild, subjects %", "value": "(14.3%)"}, {"measurement": "TEAE Dermatitis contact, maximum severity Mild, subjects n", "value": 1}, {"measurement": "TEAE Dermatitis contact, maximum severity Moderate, subjects %", "value": "(0.0%)"}, {"measurement": "TEAE Dermatitis contact, maximum severity Moderate, subjects n", "value": 0}, {"measurement": "TEAE Dermatitis contact, maximum severity PLT, subjects %", "value": "(0.0%)"}, {"measurement": "TEAE Dermatitis contact, maximum severity PLT, subjects n", "value": 0}, {"measurement": "TEAE Dermatitis contact, maximum severity Severe, subjects %", "value": "(0.0%)"}, {"measurement": "TEAE Dermatitis contact, maximum severity Severe, subjects n", "value": 0}, {"measurement": "TEAE Eczema, maximum severity Mild, subjects %", "value": "(0.0%)"}, {"measurement": "TEAE Eczema, maximum severity Mild, subjects n", "value": 0}, {"measurement": "TEAE Eczema, maximum severity Moderate, subjects %", "value": "(0.0%)"}, {"measurement": "TEAE Eczema, maximum severity Moderate, subjects n", "value": 0}, {"measurement": "TEAE Eczema, maximum severity PLT, subjects %", "value": "(0.0%)"}, {"measurement": "TEAE Eczema, maximum severity PLT, subjects n", "value": 0}, {"measurement": "TEAE Eczema, maximum severity Severe, subjects %", "value": "(0.0%)"}, {"measurement": "TEAE Eczema, maximum severity Severe, subjects n", "value": 0}, {"measurement": "TEAE Hot flush, maximum severity Mild, subjects %", "value": "(0.0%)"}, {"measurement": "TEAE Hot flush, maximum severity Mild, subjects n", "value": 0}, {"measurement": "TEAE Hot flush, maximum severity Moderate, subjects %", "value": "(0.0%)"}, {"measurement": "TEAE Hot flush, maximum severity Moderate, subjects n", "value": 0}, {"measurement": "TEAE Hot flush, maximum severity PLT, subjects %", "value": "(0.0%)"}, {"measurement": "TEAE Hot flush, maximum severity PLT, subjects n", "value": 0}, {"measurement": "TEAE Hot flush, maximum severity Severe, subjects %", "value": "(0.0%)"}, {"measurement": "TEAE Hot flush, maximum severity Severe, subjects n", "value": 0}, {"measurement": "TEAE Menorrhagia, maximum severity PLT, subjects %", "value": "(0.0%)"}, {"measurement": "TEAE Menorrhagia, maximum severity PLT, subjects n", "value": 0}, {"measurement": "TEAE Oropharyngeal pain, maximum severity Mild, subjects %", "value": "(0.0%)"}, {"measurement": "TEAE Oropharyngeal pain, maximum severity Mild, subjects n", "value": 0}, {"measurement": "TEAE Oropharyngeal pain, maximum severity Moderate, subjects %", "value": "(0.0%)"}, {"measurement": "TEAE Oropharyngeal pain, maximum severity Moderate, subjects n", "value": 0}, {"measurement": "TEAE Oropharyngeal pain, maximum severity PLT, subjects %", "value": "(0.0%)"}, {"measurement": "TEAE Oropharyngeal pain, maximum severity PLT, subjects n", "value": 0}, {"measurement": "TEAE Oropharyngeal pain, maximum severity Severe, subjects %", "value": "(0.0%)"}, {"measurement": "TEAE Oropharyngeal pain, maximum severity Severe, subjects n", "value": 0}, {"measurement": "TEAE Papule, maximum severity Mild, subjects %", "value": "(14.3%)"}, {"measurement": "TEAE Papule, maximum severity Mild, subjects n", "value": 1}, {"measurement": "TEAE Papule, maximum severity Moderate, subjects %", "value": "(0.0%)"}, {"measurement": "TEAE Papule, maximum severity Moderate, subjects n", "value": 0}, {"measurement": "TEAE Papule, maximum severity PLT, subjects %", "value": "(0.0%)"}, {"measurement": "TEAE Papule, maximum severity PLT, subjects n", "value": 0}, {"measurement": "TEAE Papule, maximum severity Severe, subjects %", "value": "(0.0%)"}, {"measurement": "TEAE Papule, maximum severity Severe, subjects n", "value": 0}, {"measurement": "TEAE Pruritus, maximum severity Mild, subjects %", "value": "(0.0%)"}, {"measurement": "TEAE Pruritus, maximum severity Mild, subjects n", "value": 0}, {"measurement": "TEAE Pruritus, maximum severity Moderate, subjects %", "value": "(0.0%)"}, {"measurement": "TEAE Pruritus, maximum severity Moderate, subjects n", "value": 0}, {"measurement": "TEAE Pruritus, maximum severity PLT, subjects %", "value": "(0.0%)"}, {"measurement": "TEAE Pruritus, maximum severity PLT, subjects n", "value": 0}, {"measurement": "TEAE Pruritus, maximum severity Severe, subjects %", "value": "(0.0%)"}, {"measurement": "TEAE Pruritus, maximum severity Severe, subjects n", "value": 0}, {"measurement": "TEAE Rash, maximum severity Mild, subjects %", "value": "(0.0%)"}, {"measurement": "TEAE Rash, maximum severity Mild, subjects n", "value": 0}, {"measurement": "TEAE Rash, maximum severity Moderate, subjects %", "value": "(0.0%)"}, {"measurement": "TEAE Rash, maximum severity Moderate, subjects n", "value": 0}, {"measurement": "TEAE Rash, maximum severity PLT, subjects %", "value": "(0.0%)"}, {"measurement": "TEAE Rash, maximum severity PLT, subjects n", "value": 0}, {"measurement": "TEAE Rash, maximum severity Severe, subjects %", "value": "(0.0%)"}, {"measurement": "TEAE Rash, maximum severity Severe, subjects n", "value": 0}, {"measurement": "TEAE Respiratory, thoracic and mediastinal disorders, maximum severity Mild, subjects %", "value": "(0.0%)"}, {"measurement": "TEAE Respiratory, thoracic and mediastinal disorders, maximum severity Mild, subjects n", "value": 0}, {"measurement": "TEAE Respiratory, thoracic and mediastinal disorders, maximum severity Moderate, subjects %", "value": "(0.0%)"}, {"measurement": "TEAE Respiratory, thoracic and mediastinal disorders, maximum severity Moderate, subjects n", "value": 0}, {"measurement": "TEAE Respiratory, thoracic and mediastinal disorders, maximum severity PLT, subjects %", "value": "(0.0%)"}, {"measurement": "TEAE Respiratory, thoracic and mediastinal disorders, maximum severity PLT, subjects n", "value": 0}, {"measurement": "TEAE Respiratory, thoracic and mediastinal disorders, maximum severity Severe, subjects %", "value": "(0.0%)"}, {"measurement": "TEAE Respiratory, thoracic and mediastinal disorders, maximum severity Severe, subjects n", "value": 0}, {"measurement": "TEAE Skin and subcutaneous tissue disorders, maximum severity Mild, subjects %", "value": "(28.6%)"}, {"measurement": "TEAE Skin and subcutaneous tissue disorders, maximum severity Mild, subjects n", "value": 2}, {"measurement": "TEAE Skin and subcutaneous tissue disorders, maximum severity Moderate, subjects %", "value": "(0.0%)"}, {"measurement": "TEAE Skin and subcutaneous tissue disorders, maximum severity Moderate, subjects n", "value": 0}, {"measurement": "TEAE Skin and subcutaneous tissue disorders, maximum severity PLT, subjects %", "value": "(0.0%)"}, {"measurement": "TEAE Skin and subcutaneous tissue disorders, maximum severity PLT, subjects n", "value": 0}, {"measurement": "TEAE Skin and subcutaneous tissue disorders, maximum severity Severe, subjects %", "value": "(0.0%)"}, {"measurement": "TEAE Skin and subcutaneous tissue disorders, maximum severity Severe, subjects n", "value": 0}, {"measurement": "TEAE Skin lesion, maximum severity Mild, subjects %", "value": "(0.0%)"}, {"measurement": "TEAE Skin lesion, maximum severity Mild, subjects n", "value": 0}, {"measurement": "TEAE Skin lesion, maximum severity Moderate, subjects %", "value": "(0.0%)"}, {"measurement": "TEAE Skin lesion, maximum severity Moderate, subjects n", "value": 0}, {"measurement": "TEAE Skin lesion, maximum severity PLT, subjects %", "value": "(0.0%)"}, {"measurement": "TEAE Skin lesion, maximum severity PLT, subjects n", "value": 0}, {"measurement": "TEAE Skin lesion, maximum severity Severe, subjects %", "value": "(0.0%)"}, {"measurement": "TEAE Skin lesion, maximum severity Severe, subjects n", "value": 0}, {"measurement": "TEAE Vascular disorders, maximum severity Mild, subjects %", "value": "(0.0%)"}]}]}
